Results published in patent publication US20100041068A1, “DEEPLY QUENCHED ENZYME SENSORS AND BINDING SENSORS” (priority 2006, published 2010).

How the values were obtained:
[1] = system: peptide P2, Ac-GRTGRRDap(Pyr)SYP-amide (unphosphorylated)
[2] = system: peptide P5, Ac-Dap(Pyr)RTGRRFSYP-amide (unphosphorylated)
[3] = system: peptide P9, Pyr-Ahx-GRTGRRFSYP-amide (unphosphorylated)

cAMP-dependent protein kinase (PKA), murine catalytic subunit
Km (PKA-catalysed phosphorylation, fluorescence progress curves, 30 µM 14-3-3τ) [1]: Km=7.1±1.9 µM | Km (PKA-catalysed phosphorylation, fluorescence progress curves, 30 µM 14-3-3τ) [2]: Km=1.7±0.4 µM | Km (PKA-catalysed phosphorylation, fluorescence progress curves, 30 µM 14-3-3τ) [3]: Km=1.6±0.9 µM
